Values belong to the molecule of their own block, whether it stands above or below them.
Tests used:
[1] = target: neurotensin receptor subtype 1 (NTS1R) (UniProt P30989)
[2] = target: neurotensin receptor subtype 1 (NTS1R) (UniProt P30989); remark: listed apart in the source
[3] = target: neurotensin receptor subtype 1 (NTS1R) (UniProt P30989); remark: listed apart in the source
[4] = target: neurotensin receptor subtype 1 (NTS1R) (UniProt P30989); assay: radioligand binding; KD of [3H]neurotensin given for the membrane preparation coexpressing D2LR and NTS1R (2.5:1); how it was determined is not told there
[5] = target: neurotensin receptor subtype 1 (NTS1R) (UniProt P30989); assay: radioligand binding; KD of [3H]neurotensin on the homogenates from CHO cells stably expressing human NTS1R (Bmax 2500-6200 fmol/mg), given as a parameter of the competition assay
D2LR (Homo sapiens) = assay: D2LR alone; details: N-homotyrosine (NhTyr) in place of tyrosine, N-terminus carries a 44-atom polyethylene glycol-based spacer

Amino acid sequences for entries named in this document (tags omitted).
UniProt P30989, whole entry: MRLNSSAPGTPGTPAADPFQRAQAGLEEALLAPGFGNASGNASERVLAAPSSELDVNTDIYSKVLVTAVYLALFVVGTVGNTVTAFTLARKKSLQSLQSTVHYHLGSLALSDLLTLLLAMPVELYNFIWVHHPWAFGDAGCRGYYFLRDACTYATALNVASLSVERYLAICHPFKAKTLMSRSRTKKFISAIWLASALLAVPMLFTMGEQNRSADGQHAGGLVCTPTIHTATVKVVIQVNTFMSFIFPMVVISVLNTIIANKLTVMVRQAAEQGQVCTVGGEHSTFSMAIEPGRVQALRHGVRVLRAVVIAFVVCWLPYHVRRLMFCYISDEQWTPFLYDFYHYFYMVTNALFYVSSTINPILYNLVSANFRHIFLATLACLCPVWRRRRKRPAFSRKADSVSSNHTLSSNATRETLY

Molecule: NT(8-13) (peptide)
- cAMP accumulation (BRET biosensor CAMYEL) in HEK 293 T cells expressing only NTS1R, with 10 μM forskolin; EC50 [1]: 2.6 nM
- β-arrestin-2 recruitment (PathHunter) in cells coexpressing ProLink-tagged D2R D80A and NTS1R; EC50 [2]: 5.9 nM
- β-arrestin-2 recruitment (PathHunter) in cells coexpressing ProLink-tagged D2R and NTS1R; EC50 [3]: 7.5 nM

Molecule: RRPYIL [bivalent control compound 2f]
- Ki (D2LR (Homo sapiens); a biphenyltriazole moiety and a 2-methoxyphenylpiperazine D2R antagonist pharmacophore): 40 nM

Results, then the molecule that gave them:

- Kd [4]: 0.5 nM
- Kd [5]: 0.37 to 0.69 nM
Molecule: [3H]neurotensin (peptide)

- Ki (D2LR (Homo sapiens); a biphenyltriazole moiety and an aminoindane-type D2R agonist pharmacophore): 39 nM
Molecule: RRPYIL [bivalent control compound 3f]
